Assay results as given in patent US20030148462A1, “Dual inhibition of sister chromatid separation at metaphase” (President and fellows of Harvard College, priority 2001, published 2003).

Test system: CDC2
Conditions: high-Δ90 extract

## CC[C@H](CO)Nc1nc(NCc2ccccc2)c2ncn(C(C)C)c2n1 [roscovitine]
  CDC2 activity (histone H1 kinase): reduced the CDC2 activity to the level of a low-Δ90 extract
